Data reported in ChEMBL document CHEMBL1143916, “Inhibition of 3(17)alpha-hydroxysteroid dehydrogenase (AKR1C21) by aldose reductase inhibitors” (Bioorg Med Chem, 2008).

Target: Aldo-keto reductase family 1 member B1 (Homo sapiens, UniProt P15121)
Test: Inhibition of human recombinant aldose reductase

## O=C(O)Cc1nn(Cc2nc3cc(C(F)(F)F)ccc3s2)c(=O)c2ccccc12 [ZOPOLRESTAT]
  IC50: 30 nM
